# Measured values reported in patent publication US9890152B2 (Genentech, Inc., priority 2012, dated 2018).
# By UniProt entry, the sequences of proteins in these tests, tags left out. Residues count along the entry.
# UniProt P00533, 25-1210 T790M/L858R limits assumed: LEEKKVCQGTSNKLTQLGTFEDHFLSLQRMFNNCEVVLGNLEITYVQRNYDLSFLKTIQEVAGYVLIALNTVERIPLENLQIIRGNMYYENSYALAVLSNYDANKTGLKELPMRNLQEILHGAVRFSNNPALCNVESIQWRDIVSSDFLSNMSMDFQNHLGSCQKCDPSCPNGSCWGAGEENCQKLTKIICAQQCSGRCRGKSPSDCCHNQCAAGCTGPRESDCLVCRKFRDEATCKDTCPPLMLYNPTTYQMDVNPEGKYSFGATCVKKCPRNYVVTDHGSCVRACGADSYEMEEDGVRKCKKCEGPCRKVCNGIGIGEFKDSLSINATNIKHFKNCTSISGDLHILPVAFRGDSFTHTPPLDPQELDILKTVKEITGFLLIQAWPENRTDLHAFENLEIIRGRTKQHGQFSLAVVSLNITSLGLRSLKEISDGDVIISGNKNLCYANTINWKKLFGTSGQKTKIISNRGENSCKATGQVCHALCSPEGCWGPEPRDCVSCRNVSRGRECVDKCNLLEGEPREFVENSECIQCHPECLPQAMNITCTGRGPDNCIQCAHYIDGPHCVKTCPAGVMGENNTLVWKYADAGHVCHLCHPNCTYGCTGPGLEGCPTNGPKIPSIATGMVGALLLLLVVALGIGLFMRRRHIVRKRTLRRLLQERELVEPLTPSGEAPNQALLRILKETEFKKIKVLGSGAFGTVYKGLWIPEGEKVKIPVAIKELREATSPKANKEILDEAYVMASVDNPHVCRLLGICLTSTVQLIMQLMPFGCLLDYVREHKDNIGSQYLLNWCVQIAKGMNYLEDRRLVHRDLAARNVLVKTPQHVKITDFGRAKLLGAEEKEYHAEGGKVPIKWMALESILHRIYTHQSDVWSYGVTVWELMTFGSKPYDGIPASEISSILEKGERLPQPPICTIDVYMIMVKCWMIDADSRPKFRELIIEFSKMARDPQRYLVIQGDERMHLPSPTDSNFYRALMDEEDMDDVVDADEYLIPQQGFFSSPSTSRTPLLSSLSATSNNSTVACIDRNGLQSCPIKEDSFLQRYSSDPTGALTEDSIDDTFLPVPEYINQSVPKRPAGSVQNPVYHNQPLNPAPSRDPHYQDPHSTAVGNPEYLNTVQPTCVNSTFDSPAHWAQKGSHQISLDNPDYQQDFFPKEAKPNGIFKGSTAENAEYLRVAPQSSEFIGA
# Target: EGFR T790M L858R (Homo sapiens, UniProt P00533, L858R/T790M)
# Test: biochemical
# Conditions: EGFR(T790M/L858R) Ki (μM), 5 μM ATP, 30 min, room temperature; apparent Ki (Morrison) converted by Cheng-Prusoff, Km of ATP 1.3 μM
row,SMILES,Ki [µM]
1,"Cc1nc2cnc(Nc3ccnc(C4=CCOCC4)n3)cc2n1C(C)C [Example 500, N-(2-(3,6-Dihydro-2H-pyran-4-yl)pyrimidin-4-yl)-1-isopropyl-2-methyl-1H-imidazo[4,5-c] pyridin-6-amine]",0.0842
2,"CC(C)n1cnc2cnc(Nc3ccnc(N4CC(N)C4)n3)cc21 [Example 79, N-(2-(3-aminoazetidin-1-yl)pyrimidin-4-yl)-1-isopropyl-1H-imidazo[4,5-c]pyridin-6-amine]",0.426
3,"CC(C)n1cnc2cnc(Nc3ccnc(N4CCC5(CCCO5)C4)n3)cc21 (single isomer, unassigned) [Example 101, N-(2-(1-oxa-7-azaspiro[4.4]nonan-7-yl)pyrimidin-4-yl)-1-isopropyl-1H-imidazo[4,5-c]pyridin-6-amine]",0.489
4,"COC1(CN(C)C)CCN(c2nccc(Nc3cc4c(cn3)nc(C)n4C(C)C)n2)CC1 [Example 515, [2-(4-Dimethylaminomethyl-4-methoxypiperidin-1-yl)pyrimidin-4-yl](1-isopropyl-2-methyl-1H-imidazo[4,5-c]pyridin-6-yl)amine]",0.464
5,"Cc1nc2cnc(Nc3ccnc(-c4cnn(C5CNC5)c4)n3)cc2n1C(C)C [Example 416, N-(2-(1-(azetidin-3-yl)-1H-pyrazol-4-yl)pyrimidin-4-yl)-1-isopropyl-2-methyl-1H-imidazo[4,5-c]pyridin-6-amine]",0.152
6,"COC1CCN(c2nccc(Nc3cc4c(cn3)nc(C)n4C(C)(C)C)n2)CC1 [Example 163, (1-tert-butyl-2-methyl-1H-imidazo[4,5-c]pyridin-6-yl)-[2-(4-methoxypiperidin-1-yl)pyrimidin-4-yl]amine]",0.0175
7,"COCC(C)(C)CNc1nccc(Nc2cc3c(cn2)nc(C)n3C(C)C)n1 [Example 522, N^4-(1-Isopropyl-2-mcthyl-1H-imidazo[4,5-c]pyridin-6-yl)-N^2-(3-methoxy-2,2-dimethylpropyl)pyrimidine-2,4-diamine]",0.194
8,"CC(C)n1cnc2cnc(Nc3ccnc(C4CCN(S(C)(=O)=O)CC4)n3)cc21 [Example 165, (1-Isopropyl-1H-imidazo[4,5-c]pyridin-6-yl)-[2-(1-methanesulfonylpiperidin-4-yl)pyrimidin-4-yl]amine]",0.614
9,"CC(C)n1c([C@@H](C)N)nc2cnc(Nc3ccnc(-c4cnn(S(=O)(=O)C5CC5)c4)n3)cc21 [Example 568, [2-((R)-1-Aminoethyl)-1-isopropyl-1H-imidazo[4,5-c]pyridin-6-yl]-[2-(1-cyclopropanesulfonyl-1H-pyrazol-4-yl)pyrimidin-4-yl]amine]",0.0622
10,"CC(C)n1cnc2cnc(Nc3ccnc(N4CCC(CCO)CC4)n3)cc21 [Example 139, 2-{1-[4-(1-Isopropyl-1H-imidazo[4,5-c]pyridin-6-ylamino)pyrimidin-2-yl]piperidin-4-yl}ethanol]",0.269
11,"CCOCCOCc1nc2cnc(Nc3ccnc(N4CCC(OC)CC4)n3)cc2n1C(C)C [Example 7, [2-(2-Ethoxyethoxymethyl)-1-isopropyl-1H-imidazo[4,5-c]pyridin-6-yl]-[2-(4-methoxypiperidin-1-yl)pyrimidin-4-yl]amine]",0.111
12,"CC(C)n1cnc2cnc(Nc3ccnc(N4C[C@@H]5[C@@H](N)[C@@H]5C4)n3)cc21 [Example 44, N-(2-((1R,5S,6s)-6-Amino-3-azabicyclo[3.1.0]hexan-3-yl)pyrimidin-4-yl)-1-isopropyl-1H-imidazo[4,5-c]pyridin-6-amine]",0.587
13,"COC(C)(C)C#Cc1nccc(Nc2cc3c(cn2)nc(C)n3C(C)C)n1 [Example 304, (1-Isopropyl-2-methyl-1H-imidazo[4,5-c]pyridin-6-yl)-[2-(3-methoxy-3-methylbut-1-ynyl)pyrimidin-4-yl]amine]",0.116
14,"Cc1nc2cnc(Nc3ccnc(/C=C/C(C)(C)C(N)=O)n3)cc2n1C(C)C [Example 310, (E)-4-[4-(1-Isopropyl-2-methyl-1H-imidazo[4,5-c]pyridin-6-ylamino)pyrimidin-2-yl]-2,2-dimethylbut-3-enoic acid amide]",0.0706
15,"CC(C)n1c(C(F)F)nc2cnc(Nc3ccnc(-c4cnn(S(=O)(=O)C(C)C)c4)n3)cc21 [Example 469, 2-(difluoromethyl)-1-isopropyl-N-(2-(1-(isopropylsulfonyl)-1H-pyrazol-4-yl)pyrimidin-4-yl)-1H-imidazo[4,5-c]pyridin-6-amine]",0.0159
16,"CC(C)n1cnc2cnc(Nc3ccnc(N4CCOCC4)n3)cc21 [Example 28, (1-Isopropyl-1H-imidazo[4,5-c]pyridin-6-yl)-(2-morpholin-4-ylpyrimidin-4-yl)amine]",0.335
17,"Cc1nc2cnc(Nc3ccnc(N4CCc5nn(C)cc5C4)n3)cc2n1C(C)C [Example 514, (1-Isopropyl-2-methyl-1H-imidazo[4,5-c]pyridin-6-yl)[2-(2-methyl-2,4,6,7-tetrahydropyrazolo[4,3-c]pyridin-5-yl)-pyrimidin-4-yl]amine]",0.0726
18,"Cc1nc2cnc(Nc3ccnc(N4CCc5cn(CCO)nc5C4)n3)cc2n1C(C)C [Example 278, 2-{6-[4-(1-Isopropyl-2-methyl-1H-imidazo[4,5-c]pyridin-6-ylamino)pyrimidin-2-yl]-4,5,6,7-tetrahydropyrazolo[3,4-c]pyridin-2-yl}ethanol]",0.0481
19,"CC(C)n1cnc2cnc(Nc3ccnc(N4CCC(S(C)(=O)=O)C4)n3)cc21 (single isomer, unassigned) [Example 105, 1-isopropyl-N-(2-(3-(methylsulfonyl)pyrrolidin-1-yl)pyrimidin-4-yl)-1H-imidazo[4,5-c]pyridin-6-amine]",0.311
20,"COc1nc2cnc(Nc3ccnc(N4CCC(OC)CC4)n3)cc2n1C(C)C [Example 11, (1-Isopropyl-2-methoxy-1H-imidazo[4,5-c]pyridin-6-yl)-[2-(4-methoxypiperidin-1-yl)pyrimidin-4-yl]amine]",0.0412
21,"CCC1COCCN1c1nccc(Nc2cc3c(cn2)nc(C)n3C(C)C)n1 (racemic) [Example 419, (±)-N-(2-(3-ethylmorpholino)pyrimidin-4-yl)-1-isopropyl-2-methyl-1H-imidazo[4,5-c]pyridin-6-amine]",0.0723
22,"CC(C)n1c(CO)nc2cnc(Nc3ccnc(N4CC[C@@H](O)[C@H](C(F)(F)F)C4)n3)cc21 (racemic) [Example 627, (±)-(trans)-1-(4-(2-(Hydroxymethyl)-1-isopropyl-1H-imidazo[4,5-c]pyridin-6-ylamino)pyrimidin-2-yl)-3-(trifluoromethyl)piperidin-4-ol]",0.7
23,"CC(C)n1cnc2cnc(Nc3ccnc(-c4ccc(O)nc4)n3)cc21 [Example 62, 5-(4-((1-Isopropyl-1H-imidazo[4,5-c]pyridin-6-yl)amino)pyrimidin-2-yl)pyridin-2-ol]",> 0.229
24,CC(C)n1cnc2cnc(Nc3ccnc(N4CCN(CCO)CC4)n3)cc21 [Example 172],0.503
25,"CC(C)n1cnc2cnc(Nc3ccnc(N4CCC(S(C)(=O)=O)C4)n3)cc21 (single isomer, unassigned) [Example 104, 1-isopropyl-N-(2-(3-(methylsulfonyl)pyrrolidin-1-yl)pyrimidin-4-yl)-1H-imidazo[4,5-c]pyridin-6-amine]",0.207

# The next molecules have a lower Ki than those just listed; values first:
row,Ki [µM],SMILES
1,0.0127,"CC(C)n1c(COCCO)nc2cnc(Nc3ccnc(-c4cnn(S(=O)(=O)C5CC5)c4)n3)cc21 [Example 557, 2-{6-[2-(1-Cyclopropanesulfonyl-1H-pyrazol-4-yl)pyrimidin-4-ylamino]-1-isopropyl-1H-imidazo[4,5-c]pyridin-2-ylmethoxy}ethanol]"
2,0.0113,COC1CCN(c2nccc(Nc3cc4c(cn3)c(C(=O)NCCCO)cn4C(C)C)n2)CC1 [Example 243]
3,0.0097,"COC1CCN(c2nccc(Nc3cc4c(cn3)c(C#N)cn4C(C)C)n2)CC1 [Example 58, 1-Isopropyl-6-((2-(4-methoxypiperidin-1-yl)pyrimidin-4-yl)amino)-1H-pyrrolo[3,2-c]pyridine-3-carbonitrile]"
4,0.00817,C[C@H](n1c([C@@H](C)O)nc2cnc(Nc3ccnc(N4CCC(S(C)(=O)=O)CC4)n3)cc21)C(F)(F)F [Example 662]
5,0.0075,"COC1CCN(c2nccc(Nc3cc4c(cn3)c(C(=O)NCCO)cn4C(C)C)n2)CC1 [Example 121, N-(2-hydroxyethyl)-1-isopropyl-6-((2-(4-methoxypiperidin-1-yl)pyrimidin-4-yl)amino)-1H-pyrrolo[3,2-c]pyridine-3-carboxamide]"
6,0.00617,CC(C)n1cc(C(=O)NC2CCOCC2)c2cnc(Nc3ccnc(NCC(C)(C)S(C)(=O)=O)n3)cc21 [Example 664]
7,0.00588,"Cc1nc2cnc(Nc3ccnc(-c4cnn(S(=O)(=O)C5COC5)c4)n3)cc2n1C(C)C [Example 260, 1-Isopropyl-2-methyl-N-(2-(1-(oxetan-3-ylsulfonyl)-1H-pyrazol-4-yl)pyrimidin-4-yl)-1H-imidazo[4,5-c]pyridin-6-amine]"
8,0.00177,"CCC(C)n1cc(C(=O)NC2CCN(C3COC3)CC2)c2cnc(Nc3ccnc(N4CC[C@@H](OC)[C@@H](F)C4)n3)cc21 (single isomer, unassigned) [Example 325]"
9,0.00163,"CC1(n2c(CO)nc3cnc(Nc4ccnc(-c5cnn(S(=O)(=O)C6CC6)c5)n4)cc32)CCCC1 [Example 477, (6-(2-(1-(cyclopropylsulfonyl)-1H-pyrazol-4-yl)pyrimidin-4-ylamino)-1-(1-methylcyclopentyl)-1H-imidazo[4,5-c]pyridin-2-yl)methanol]"
10,0.00106,"CCNC(=O)Cn1cc(-c2cn(C(C)C)c3cc(Nc4ccnc(-c5cnn(S(=O)(=O)CC)c5)n4)ncc23)cn1 [Example 447, N-ethyl-2-(4-(6-(2-(1-(ethylsulfonyl)-1H-pyrazol-4-yl)pyrimidin-4-ylamino)-1-isopropyl-1H-pyrrolo[3,2-c]pyridin-3-yl)-1H-pyrazol-1-yl)acetamide]"
11,0.000728,"CC(C)n1cc(C(=O)NC2CC[S+]([O-])CC2)c2cnc(Nc3ccnc(-c4cnn(S(=O)(=O)C5CC5)c4)n3)cc21 (stereo not drawn) [Example 456, 6-((2-(1-(cyclopropylsulfonyl)-1H-pyrazol-4-yl)pyrimidin-4-yl)amino)-1-isopropyl-N-(1-oxidotetrahydro-2H-thiopyran-4-yl)-1H-pyrrolo[3,2-c]pyridine-3-carboxamide]"
